In PubChem BioAssay AID465 (The Scripps Research Institute Molecular Screening Center, 2006):
This is a selection; strong and weak results do not stand in their true shares. Some of these compounds have results that are not shown, active ones among them. Calls of active or inactive are those of the source.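 The calls were made as follows: active = inhibition above the mean of all tested compounds plus 3 SD (cut at about 40% in these data); inactive = the rest.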

Assay: lowered NF-kB luciferase signal in HEK293 cells – cell-based, HEK-293 luciferase reporter, PMA/ionomycin, luminescence, antigen receptor NF-kB inhibitor project, primary screen (AID 465);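 also: 0% = stimulated DMSO wells and 100% = 10 µM reference inhibitor 5653914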
Conditions: HEK-293 NF-kB luciferase reporter, at 3 µM, hits give high values
Method in brief: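 System: NF-kB luciferase reporter HEK-293 cells | Replication: Single test | Control set: DMSO vs reference inhibitor | Evaluation: % inhibition | Schedule: 1 h pretreatment, 16 h stimulation, 37 °C | Probe or stimulus: PMA with ionomycin | Compound dosing: One dose, 3 µM | Detection: Luciferase luminescence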

Row | SMILES | inhibition
1 | O=C(OC1CN2CCC1CC2)C(CO)(c1ccccc1)c1ccccc1 (configuration not stated) | inactive: 18.7%
2 | CN(C)c1cccc(C(=O)NCC2(N(C)C)CCCCC2)c1 | inactive: 7%
